Sampled rows, rich in hits. Any-hit rate of the full collection: about 4.2%.
ALR H2O2 inh = inhibitors of human sulfhydryl oxidase ALR; 290,000 tested, 3.8% active; inhibition, % (test concentration not listed); AID 485317; P55789; purified ALR, DTT oxidation, H2O2 HRP-luminol luminescence;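 active = mean and each replicate at 75% or more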;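 also: stock transfer was 7.5 nL into about 7.5 µL; 0% = neutral wells and 100% = wells with inactivated enzyme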
MC4R ag barr = MC4R agonists recruiting beta-arrestin, primary screen, cell-based, luminescence, agonist arm of biased-ligand search; Melanocortin receptor 4 (Homo sapiens), P32245; AID 540308, 2011; 0.98% of 360,000 active; activation, % at 8.9 µM; U2OS MC4R beta-arrestin complementation; percent of melanotan II response, DMSO zero;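 active = activation above a per-plate cutoff, the mean activation of sample wells on that plate plus 3 SD, cut at about 8% in these data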
MC4R antag cAMP = MC4R antagonists of cAMP signaling, primary screen, cell-based, TR-FRET, antagonist arm of biased-ligand search | AID 540295, 2011 | inhibition, % at 6.5 µM | MC4R-expressing cells, MTII-stimulated cAMP, LANCE TR-FRET | Melanocortin receptor 4 (Homo sapiens), P32245 | 0.48% of 360,000 active;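 active = inhibition above its plate's cutoff, the mean of tested wells on that plate plus 3 SD, cut at about 29% in these data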
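Material – human MC4R-expressing U2OS cells · Repeats – no replicates · Detection – TR-FRET with Eu-cAMP and labeled anti-cAMP, 671 nm · Times – compound 30 min, challenge 1 h, detection 1 h · Compound – single nominal compound dose of 6.5 µM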
UUG fidelity = alters start codon recognition fidelity in yeast | S. cerevisiae UUG-firefly luciferase reporter, luminescence/redox ratio | activity score, % at 18.7 µM | 350,000 compounds, 0.13% hits | AID 602363;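 active = replicate mean at a twofold rise or more, about +100% in these data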;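 note: firefly luciferase made from a UUG start codon reports start codon fidelity; reporter light over untreated wells divided by growth signal over untreated wells; some hits fall short of that in this replicate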
NALP1 inh = NALP1 inflammasome inhibitors in reconstituted yeast, colorimetric, S. cerevisiae, triplicate retest; S. cerevisiae NALP1/ASC/caspase-1 growth, X-gal OD620, 72 h; inhibition, % at 10 µM; 0.61% of 280,000 active; in the data active = inhibition mostly above about 24%, no sharp cut-off; inactive = mostly below about 32%
HDAC3 inh = HDAC3 deacetylase inhibitors, primary screen, biochemical, fluorescence, cell-free homogeneous | recombinant HDAC3, fluorogenic peptide/trypsin coupled | inhibition, % at 8.3 µM | Histone deacetylase 3 (Homo sapiens), O15379 | 0.15% of 320,000 active | AID 2718, 2010; in the data active = inhibition above about 26%, passing the limit was not always enough
MC4R barr ag = MC4R beta-arrestin agonists, retest, confirmation, cell-based, luminescence, U2OS | shares compounds with MC4R ag barr | U2OS MC4R beta-arrestin recruitment; scaled DMSO 0%, Melanotan II 100% | activation, % at 8.9 µM | 31% of 2,400 active | AID 602192, 2012;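 active = mean activation across replicates above the hit cutoff set in the earlier primary screen, cut at about 8% in these data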
MOR DOR agonist = agonists of MOR-DOR heterodimerization, counter-screen for MC4R biased agonist project, cell-based, luminescence; shares compounds with MC4R ag barr; U2OS PathHunter beta-arrestin, beta-gal luminescence; percent of deltorphin B response, DMSO zero; activation, % at 9.2 µM; 5.8% of 2,400 active; AID 602194, 2012;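 active = mean activation across replicates exceeds the hit threshold derived in the earlier primary screen, cut at about 18% in these data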
Hits are given with their value; - = inactive; . = no result.

Chains of the proteins cited; added tags and fusions are not shown.
Melanocortin receptor 4 (Homo sapiens), P32245, UniProt P32245, whole entry, looked up: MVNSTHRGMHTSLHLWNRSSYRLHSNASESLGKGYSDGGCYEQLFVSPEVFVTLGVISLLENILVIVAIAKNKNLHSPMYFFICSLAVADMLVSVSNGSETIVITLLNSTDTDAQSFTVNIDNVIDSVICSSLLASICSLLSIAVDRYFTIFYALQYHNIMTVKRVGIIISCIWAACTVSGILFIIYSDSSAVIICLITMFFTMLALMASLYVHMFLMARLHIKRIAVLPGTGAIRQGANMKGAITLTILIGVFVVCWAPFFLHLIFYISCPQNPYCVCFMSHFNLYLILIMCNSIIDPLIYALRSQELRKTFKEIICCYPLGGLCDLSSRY

SMILES | ALR H2O2 inh | MC4R ag barr | MC4R antag cAMP | UUG fidelity | NALP1 inh | HDAC3 inh | MC4R barr ag | MOR DOR agonist
Cc1ccc([C@@H]2CC=C(C(=O)O)[C@H](c3ccc(C(C)(C)C)cc3)N2S(=O)(=O)c2ccc(C)cc2)cc1 | . | - | - | - | . | . | . | .
Cc1ccc(S(=O)(=O)N2[C@@H](c3ccc(C(C)(C)C)cc3)C(C(=O)O)=CC[C@H]2c2ccc(C(C)C)cc2)cc1 | . | 20 | - | - | . | - | 15 | -
CSCCC(NS(=O)(=O)c1ccc(Cl)cc1)C(=O)OCC(=O)c1c(C)[nH]c2ccccc12 (stereo not drawn) | . | 12 | - | . | - | . | - | -
COc1cc(C(=O)Nc2nnc(Cc3ccccc3)s2)cc(OC)c1OC | - | - | - | - | - | - | . | .
COc1ccc(C(=O)Nc2nnc(Cc3ccccc3)s2)c(OC)c1 | - | 15 | - | - | - | - | - | -
O=C(Nc1nnc(CCc2ccccc2)s1)c1cccc(F)c1 | - | 14 | - | - | - | - | - | -
C[C@H](CO)N1C[C@H](C)[C@@H](CN(C)S(C)(=O)=O)OCCCC[C@H](C)Oc2ccc(NC(=O)Nc3ccccc3)cc2C1=O | . | . | . | - | . | . | . | .
COc1ccc(NC(=O)COC(=O)c2cc(SC)ccc2Cl)c(OC)c1 | - | 22 | - | - | - | - | 9.1 | -
COc1ccc(C(C)(C)C)cc1NC(=O)COC(=O)c1cc(SC)ccc1Cl | - | - | - | . | - | - | . | .
COC(=O)C[C@H]1CC[C@@H]2[C@@H](COc3ccc(NC(=O)c4cccs4)cc3C(=O)N2C)O1 | . | . | . | - | . | . | . | .
Cc1ccc(S(=O)(=O)Nc2cccc3c2O[C@@H](CN(C)S(=O)(=O)c2ccccc2)[C@H](C)CN([C@H](C)CO)C3=O)cc1 | . | . | . | - | . | . | . | .
O=C1Nc2ccccc2/C1=C/c1cnc(-c2ccccc2)[nH]1 | - | 20 | - | - | - | - | 25 | -
O=C1Nc2ccccc2/C1=C/c1cccnc1 | - | - | - | . | - | - | . | .
C[C@H](CO)N1C[C@H](C)[C@@H](CN(C)C(=O)Nc2ccc3c(c2)OCO3)Oc2ccc(NC(=O)C3CCCCC3)cc2CC1=O | . | . | . | - | . | . | . | .
CC(C)CSc1nc2c(c(=O)[nH]c(=O)n2C)n1CC(O)COc1cccc2ccccc12 (stereo not drawn) | . | 14 | - | - | - | . | - | -
CCSc1nc2c(c(=O)[nH]c(=O)n2C)n1CC(O)COc1ccccc1 (stereo not drawn) | - | - | - | . | - | - | . | .
CC(C)c1cn(CC[C@H]2CC[C@@H](NC(=O)C3CCCCC3)[C@@H](CO)O2)nn1 | . | . | . | - | . | . | . | .
CO[C@@H]1CN(C)C(=O)c2ccc(NC(=O)C3CCCC3)cc2OC[C@H](C)N(CCC(F)(F)F)C[C@H]1C | . | . | . | - | . | . | . | .
CCc1ccc(OCCNC(=O)OCc2ccccc2)cc1 | - | 10.0 | - | . | - | - | - | -
O=C(C[C@@H]1CC[C@@H](NC(=O)Nc2ccccc2F)[C@H](CO)O1)NCc1ccccc1 | . | . | . | - | . | . | . | .
CC(=O)Nc1cc(-c2ccc(F)cc2)cn2c(-c3ccc(F)c(Cl)c3)cnc12 | . | 19 | - | - | . | . | 18 | -
CC(=O)Nc1cc(-c2cccc(F)c2)cn2c(-c3ccc(F)c(Cl)c3)cnc12 | . | 16 | - | - | . | . | 19 | -
CC(=O)Nc1cc(-c2cccc(NS(C)(=O)=O)c2)cn2c(-c3ccccc3)cnc12 | . | 12 | - | - | . | . | 20 | -

High-throughput results from PubChem.
